Laboratory results: US20220362203A1, “METHOD FOR TREATING MOOD DISORDERS” (published 2022)

Key:
[1] = test system: CUMS rats; assay: Preference for sugar water in chronic unpredictable moderate stress (CUMS) depression rat model; conditions: for Preference for sugar water (sugar water intake/total fluid intake): n = 10, x ± s.e.m.; for Effect on preference for sugar water versus model group (in words): after six weeks of administration, P<0.05 or P<0.01 vs model group
[2] = test system: APP/PS1 mice; assay: Elevated plus maze (EPM) test in APP/PS1 mice; conditions: 0.3 mg/kg by gavage once a day Monday to Friday from 6 months of age; test at 10 months, 7 days after electric shock; vs wild-type mice
[3] = test system: C57B6 mice with neuronal damage (MPTP); assay: Deaths of mice with MPTP neuronal damage during the experiment; conditions: PD-PAO group of 20 mice, PAO 0.3 mg/kg; 12 died in PD-ctrl group of 20
[4] = test system: C57B6 mice with neuronal damage (MPTP); assay: Preference for sugar water in mice with MPTP neuronal damage
[5] = test system: ICR mice; assay: Novelty-suppressed feeding (NSF) test in wild-type ICR mice; conditions: 0.3 mg/kg by gavage every day for 12 days; n=20; placebo 201.6±21.5 s; p<0.05

COc1ccc(C(CN(C)C)C2(O)CCCCC2)cc1 (stereo not shown)
Preference for sugar water (sugar water intake/total fluid intake) ([1]; venlafaxine 15 mg/kg oral once a day, CUMS for 5 weeks): 0.90 ± 0.08
Preference for sugar water (sugar water intake/total fluid intake) ([1]; venlafaxine 15 mg/kg oral once a day, CUMS for 6 weeks): 0.94 ·
Preference for sugar water (sugar water intake/total fluid intake) ([1]; venlafaxine 15 mg/kg oral once a day, CUMS for 7 weeks): 0.92 ··
Preference for sugar water (sugar water intake/total fluid intake) ([1]; venlafaxine 15 mg/kg oral once a day, CUMS for 8 weeks): 0.9 ·
Effect on preference for sugar water versus model group (in words) ([1]; venlafaxine oral): can increase the preference for sugar water

O=[As]c1ccccc1 (stereo not shown)
Percentage of the time spent in the open arm (EPM) [2]: not significantly different from that of the wild-type mice
Mice died during the experiment [3]: 6 mice
Preference for sugar water ([4]; PAO 0.3 mg/kg by gavage every day for 7 days in the fourth week, test day 7 of fourth week (FIG. 8A)): not significantly different from the blank group
Preference for sugar water ([4]; after administration stopped, test day 7 of the sixth week (FIG. 8B)): no significant difference from each other
Effect on preference for sugar water (in words) ([1]; PAO 1.5 mg/kg oral): can also increase the preference for sugar water
Effect on preference for sugar water versus model group (in words) ([1]; PAO 3 mg/kg and 0.75 mg/kg oral): can increase the preference for sugar water
Preference for sugar water (sugar water intake/total fluid intake) ([1]; high dose 3.0 mg/kg by gavage once a day, CUMS for 5 weeks): 0.81 ± 0.21
Preference for sugar water (sugar water intake/total fluid intake) ([1]; high dose 3.0 mg/kg by gavage once a day, CUMS for 6 weeks): 0.84 ± 0.17
Preference for sugar water (sugar water intake/total fluid intake) ([1]; high dose 3.0 mg/kg by gavage once a day, CUMS for 7 weeks): 0.9 ·
Preference for sugar water (sugar water intake/total fluid intake) ([1]; high dose 3.0 mg/kg by gavage once a day, CUMS for 8 weeks): 0.86 ± 0.10
Preference for sugar water (sugar water intake/total fluid intake) ([1]; low dose 0.75 mg/kg by gavage once a day, CUMS for 5 weeks): 0.87 ± 0.15
Preference for sugar water (sugar water intake/total fluid intake) ([1]; low dose 0.75 mg/kg by gavage once a day, CUMS for 6 weeks): 0.88 ± 0.14
Preference for sugar water (sugar water intake/total fluid intake) ([1]; low dose 0.75 mg/kg by gavage once a day, CUMS for 7 weeks): 0.91 ·
Preference for sugar water (sugar water intake/total fluid intake) ([1]; low dose 0.75 mg/kg by gavage once a day, CUMS for 8 weeks): 0.92 ·
Preference for sugar water (sugar water intake/total fluid intake) ([1]; medium dose 1.5 mg/kg by gavage once a day, CUMS for 5 weeks): 0.72 ± 0.30
Preference for sugar water (sugar water intake/total fluid intake) ([1]; medium dose 1.5 mg/kg by gavage once a day, CUMS for 6 weeks): 0.78 ± 0.20
Preference for sugar water (sugar water intake/total fluid intake) ([1]; medium dose 1.5 mg/kg by gavage once a day, CUMS for 7 weeks): 0.86 ± 0.08
Preference for sugar water (sugar water intake/total fluid intake) ([1]; medium dose 1.5 mg/kg by gavage once a day, CUMS for 8 weeks): 0.81 ± 0.14
Onset time of antidepressant effect ([1]; oral PAO compared with venlafaxine by gavage): slightly later than oral administration by gavage of venlafaxine
Feeding latency (time to start eating, NSF) [5]: 159.6 ± 20.3 s
